In PubChem BioAssay AID493098 (Sanford-Burnham Center for Chemical Genomics, 2011):
The entries are a selection whose mix differs from that of the whole data set. Some results for these compounds are left out of this collection, so the calls shown say nothing about other tests. Calls of active or inactive are those of the source.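 Rule for the calls: active = compounds whose inhibition of the agonist-driven luminescence signal at 20 µM reaches about 50% (limit read from the data); inactive = the rest.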

The chains behind the UniProt entries cited, without tags or fusion partners.
UniProt P51684, whole entry: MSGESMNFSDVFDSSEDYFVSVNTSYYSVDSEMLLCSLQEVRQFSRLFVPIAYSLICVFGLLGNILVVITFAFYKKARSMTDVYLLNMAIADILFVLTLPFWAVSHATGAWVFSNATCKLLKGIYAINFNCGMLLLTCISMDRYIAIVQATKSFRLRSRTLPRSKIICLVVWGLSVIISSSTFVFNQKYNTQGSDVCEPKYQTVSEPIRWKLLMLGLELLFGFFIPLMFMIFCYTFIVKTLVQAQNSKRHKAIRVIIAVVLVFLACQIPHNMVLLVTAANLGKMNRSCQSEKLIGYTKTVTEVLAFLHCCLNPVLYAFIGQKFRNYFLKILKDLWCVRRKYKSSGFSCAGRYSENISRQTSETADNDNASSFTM

Molecular target: C-C chemokine receptor type 6 (Homo sapiens) (UniProt P51684)
Assay: blockers of CCL20-driven beta-arrestin recruitment to CCR6 – cell-based, CHO-K1, luminescence, uHTS, primary screen (AID 493098);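 note: cells stimulated with CCL20 at 14 nM final; plate controls were DMSO with CCL20 for no effect and DMSO without agonist for full effect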
Settings: CHO-K1 CCR6 PathHunter beta-arrestin, CCL20-stimulated, at 20 µM, hits give high values

How did the inhibition turn out when COc1cc(C(=O)NCC2(N(C)C)CCCCC2)c([N+](=O)[O-])cc1OC was run?
The inhibition was inactive: -0.51%.

For CN(C)C1(CNC(=O)c2ccc(Br)cc2)CCCCC1, which inhibition is on record?
The inhibition was inactive: 16%.

For O=C(NCC1(N2CCCCC2)CCCCC1)c1cccc(Cl)c1, which inhibition is on record?
The inhibition was inactive: 3.55%.

COc1cccc(C(=O)NCC2(N3CCCCC3)CCCCC2)c1 was tested. Which inhibition did it give?
Its inhibition is inactive: 1.38%.

How did the inhibition turn out when COc1ccc(Cl)cc1C(=O)NCC1(N(C)C)CCCCC1 was run?
The inhibition was inactive: 8.81%.

For O=C(OC1CN2CCC1CC2)C(CO)(c1ccccc1)c1ccccc1 (stereo not given), which inhibition is on record?
The inhibition was inactive: -4.65%.

How did the inhibition turn out when CN(C)c1cccc(C(=O)NCC2(N(C)C)CCCCC2)c1 was run?
The inhibition was inactive: 3.61%.

How did the inhibition turn out when CC(C)Oc1ccc(C(=O)NCC2(N(C)C)CCCCC2)cc1 was run?
The inhibition was inactive: 15.1%.

O=C(OCCN1CCCC1)C(O)(c1ccccc1)c1ccccc1 was tested. Which inhibition did it give?
The inhibition was inactive: 4.39%.

For COc1ccc(Br)c(C(=O)NCC2(N3CCCCC3)CCCCC2)c1, which inhibition is on record?
The inhibition was inactive: 16.2%.

With CN1[C@@H]2CC[C@H]1CC(OC(=O)C(O)(c1ccccc1)c1ccccc1)C2 (stereo not given in full) as the compound, how does the inhibition read?
The inhibition was inactive: 6.96%.

With O=C(NCC1(N2CCCCC2)CCCCC1)c1cc([N+](=O)[O-])ccc1Cl as the compound, how does the inhibition read?
Its inhibition is inactive: 7.75%.

For Cc1ccc(C(=O)NCC2(N3CCCCC3)CCCCC2)cc1, which inhibition is on record?
Its inhibition is inactive: 17.2%.

With CC(C)N1C(=O)CC2(CCN(CCOC(=O)C(O)(c3ccccc3)c3ccccc3)CC2)C1=O as the compound, how does the inhibition read?
Its inhibition is inactive: 15.2%.

How did the inhibition turn out when CCN(CC)CC(C)C(C)OC(=O)C(O)(c1ccccc1)c1ccccc1 (stereo not given) was run?
Its inhibition is inactive: 11.5%.

For COc1cc(SC)ccc1C(=O)NCC1(N(C)C)CCCCC1, which inhibition is on record?
Its inhibition is inactive: 5.69%.

For Cc1ccccc1C(=O)NCC1(N2CCCCC2)CCCCC1, which inhibition is on record?
The inhibition was inactive: 8.25%.

For CN(C)C1CCCC1OC(=O)C(O)(c1ccccc1)c1ccccc1 (stereo not given), which inhibition is on record?
The inhibition was inactive: -12.6%.

With CN(C)c1ccc(C(=O)NCC2(N(C)C)CCCCC2)cc1 as the compound, how does the inhibition read?
The inhibition was inactive: 2.31%.

Which inhibition does the source give for Cc1cc(C(=O)NCC2(N3CCCCC3)CCCCC2)ccc1[N+](=O)[O-] here?
The inhibition was inactive: 11.7%.

CCN1CCCC(OC(=O)C2(O)c3ccccc3C=Cc3ccccc32)C1 (stereo not given) was tested. Which inhibition did it give?
The inhibition was inactive: -0.5%.

Which inhibition does the source give for O=C(NCC1(N2CCCCC2)CCCCC1)c1cccc(Br)c1 here?
The inhibition was inactive: 13.6%.

With COc1ccc(C(=O)NCC2(N(C)C)CCCCC2)cc1 as the compound, how does the inhibition read?
Its inhibition is inactive: 8.4%.

C=CCN1CCN(CCOC(=O)C(O)(c2ccccc2)c2ccccc2)CC1 was tested. Which inhibition did it give?
The inhibition was inactive: 5.07%.

For O=C(NCC1(N2CCCCC2)CCCCC1)c1cc(F)c(F)cc1Cl, which inhibition is on record?
Its inhibition is inactive: 9.53%.
